Patent US20220313698A1, “MODULATORS OF CYSTIC FIBROSIS TRANSMEMBRANE CONDUCTANCE REGULATOR” (Vertex Pharmaceuticals Incorporated, priority 2019, published 2022)

Amino acid sequences for entries named in this document (tags omitted).
UniProt P13569, whole entry: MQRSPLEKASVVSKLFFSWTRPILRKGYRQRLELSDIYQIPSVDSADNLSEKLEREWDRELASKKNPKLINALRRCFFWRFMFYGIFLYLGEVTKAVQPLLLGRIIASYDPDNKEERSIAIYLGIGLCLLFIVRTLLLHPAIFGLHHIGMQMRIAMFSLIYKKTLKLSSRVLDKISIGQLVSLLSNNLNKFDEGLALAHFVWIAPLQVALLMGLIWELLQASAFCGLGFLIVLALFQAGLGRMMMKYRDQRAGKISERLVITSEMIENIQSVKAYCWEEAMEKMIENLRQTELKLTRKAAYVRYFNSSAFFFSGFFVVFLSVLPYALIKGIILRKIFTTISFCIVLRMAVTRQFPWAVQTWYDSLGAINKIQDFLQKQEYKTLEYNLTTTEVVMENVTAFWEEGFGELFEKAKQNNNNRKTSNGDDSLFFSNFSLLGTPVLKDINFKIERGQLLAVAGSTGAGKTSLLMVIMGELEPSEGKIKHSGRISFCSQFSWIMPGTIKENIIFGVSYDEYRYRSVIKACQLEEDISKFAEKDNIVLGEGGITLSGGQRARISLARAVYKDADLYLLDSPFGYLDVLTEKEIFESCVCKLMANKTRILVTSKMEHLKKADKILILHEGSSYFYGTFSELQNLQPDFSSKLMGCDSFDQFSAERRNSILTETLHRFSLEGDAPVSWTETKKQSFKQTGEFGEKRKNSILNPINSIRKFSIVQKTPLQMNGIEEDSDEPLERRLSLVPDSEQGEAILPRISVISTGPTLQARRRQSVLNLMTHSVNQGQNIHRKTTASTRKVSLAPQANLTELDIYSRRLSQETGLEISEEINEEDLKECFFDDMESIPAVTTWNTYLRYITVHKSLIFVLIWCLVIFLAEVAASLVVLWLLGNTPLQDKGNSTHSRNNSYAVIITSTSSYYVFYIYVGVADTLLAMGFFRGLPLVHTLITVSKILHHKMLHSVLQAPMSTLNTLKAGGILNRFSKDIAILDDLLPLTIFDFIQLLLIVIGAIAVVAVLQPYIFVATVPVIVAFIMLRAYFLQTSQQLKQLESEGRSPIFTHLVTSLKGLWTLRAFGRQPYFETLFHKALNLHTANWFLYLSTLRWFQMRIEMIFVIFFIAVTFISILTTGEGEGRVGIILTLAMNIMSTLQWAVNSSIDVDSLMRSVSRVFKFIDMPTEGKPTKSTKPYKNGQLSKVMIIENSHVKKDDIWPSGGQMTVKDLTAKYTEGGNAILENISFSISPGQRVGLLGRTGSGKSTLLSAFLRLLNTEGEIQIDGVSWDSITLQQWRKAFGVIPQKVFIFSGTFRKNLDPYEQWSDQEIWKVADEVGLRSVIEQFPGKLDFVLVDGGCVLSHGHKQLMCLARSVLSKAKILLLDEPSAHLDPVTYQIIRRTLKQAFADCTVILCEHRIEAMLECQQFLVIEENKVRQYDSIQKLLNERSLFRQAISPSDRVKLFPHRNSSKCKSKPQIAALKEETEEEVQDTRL

Target: CFTR-mediated chloride transport (Homo sapiens, UniProt P13569)
Assay: Corrector Assay A - membrane potential dye assay (enteroid cells)
Settings: for Corrector Assay A % activity: % of chloride transport of triple combination control (1 μM (14S)-dispiro macrocycle + 3 μM tezacaftor + 300 nM ivacaftor); for EC50: read-out: Corrector Assay A EC50, human intestinal enteroid cells, 18-24 h incubation, acute 10 μM forskolin + 300 nM ivacaftor

Row | SMILES | Corrector Assay A % activity | EC50
1 | CC(C)(C)CCOc1ccn(-c2ccc3c(n2)N2C[C@@H](CC[C@@H](c4ccccn4)Nc4cccc(n4)S(=O)(=O)NC3=O)CC2(C)C)n1 | ++ (++ is 30-60%) | < 1 µM
2 | CC1(C)C[C@@H]2CC[C@H](c3ccccn3)Nc3cccc(n3)S(=O)(=O)NC(=O)c3ccc(-n4ccc(OCCC(F)(F)F)n4)nc3N1C2 | +++ (+++ is >60%) | < 1 µM
3 | CC1(C)C[C@@H]2CC[C@@H](c3ccccn3)Nc3cccc(n3)S(=O)(=O)NC(=O)c3ccc(C4CC4)nc3N1C2 | +++ (+++ is >60%) | < 1 µM
